{"source": "paper PMC3913610", "about": "“Antitumor Activity and Induction of TP53-Dependent Apoptosis toward Ovarian Clear Cell Adenocarcinoma by the Dual PI3K/mTOR Inhibitor DS-7423” (PLoS ONE, 2014)", "test_system": "phosphorylation of AKT, S6, FOXO1/3a in OCCA cells", "test": "Immunoblotting of PI3K/mTOR signaling in OCCA cells", "type": "cell-based", "details": "OVISE", "excerpt": "Signals were detected using BioRAD western blotting systems (BioRAD, Hercules, CA) with the detection reagents ECL advance and ECL select (GE Healthcare, Piscataway, NJ).", "data": [{"smiles": "CO[C@H]1C[C@@H]2CC[C@@H](C)[C@@](O)(O2)C(=O)C(=O)N2CCCC[C@H]2C(=O)O[C@H]([C@H](C)C[C@@H]2CC[C@@H](O)[C@H](OC)C2)CC(=O)[C@H](C)/C=C(\\C)[C@@H](O)[C@@H](OC)C(=O)[C@H](C)C[C@H](C)/C=C/C=C/C=C/1C", "note": "[rapamycin]", "values": [{"measurement": "dose suppressing p-S6", "result": "≥ 2.45", "unit": "nM"}]}]}
